Reference: publication PMC5944968, “A multi-chamber microfluidic intestinal barrier model using Caco-2 cells for drug transport studies” (PLoS ONE, 2018)

Test system: Caco-2 monolayers
Assay: Permeability studies across Caco-2 monolayers in microfluidic device
Details: microfluidic day 9 or 10 vs Transwell day 14, without TDM
Experimental: Buffer^+ was prepared by mixing Hank’s Buffered Saline solution (HBSS; Gibco, Denmark), 0.1% (wt/vol) OVA (ovalbumin; from chicken egg white, Sigma, Denmark) and 10 mM HEPES (HEPES; Sigma, Denmark) at pH 7.4.
The Caco-2 translocation of peptide, [^3H]mannitol or Rh 123 over Caco-2 layers is expressed as the apparent permeability (Papp), given by: Papp=dQ/dt1/AC0 (2) Where dQ/dt is the steady-state flux across the cell layer (pmol/s), A is the surface area (1.12 cm^2 for Transwell, 0.1 cm^2 for microfluidic), and C0 is the initial sample concentration.

Row | Substance | Papp in microfluidic chip compared to static Transwell cultures
1 | fluorescein isothiocyanate (FITC)-labeled dextran [FD-4] | slightly higher (not significant)
2 | insulin | slightly higher (not significant)
